Laboratory results reported in patent publication US20060135491A1, “Vitamin D3 analog useful for the treatment of osteoporosis” (priority 2004, published 2006).

System: MCF-7 cells
Test: Cell proliferation, [3H]thymidine incorporation
Assay type: cell-based
Details: in comparison with 1α,25(OH)2D3 as control (100% activity); 72 hours incubation
Method: The compound of the present invention was evaluated for its effect on cell proliferation. […] The cultures were maintained at 37° C. in an atmosphere of humidified air containing 5% CO2. The MCF-7 cells were seeded at approximately 5×10^3 cells/well in the DMEM modified medium in a 96-well microtiter plate. […] Finally, 1 μCi of [^3H]thymidine was added to each well and the cells were harvested after a further 4 hour incubation period. The cells were harvested with a Packard Harvester and the cell count measured by a Packard Topcount System.

## C=C1/C(=C\C=C2/CCC[C@]3(C)[C@@H]([C@H](C)CCCC(C)(C)O)CC[C@@H]23)C[C@@H](O)C[C@@H]1O [1α,25(OH)2D3, 1α,25-dihydroxyvitamin D3]
  MCF-7 cell proliferation, percentage activity (at 50% of the dose response): 100%
